The numbers were not newly measured in patent US11575141B2 (Robert Bosch GmbH, priority 2020, dated 2023), which cites them from elsewhere.

Read-outs that look alike come from different tables or passages of the source.

Take “Pyrophosphoric acid (diphosphoric acid) [Example 3]”: the “pKa values (pKa source in footnotes)” value is, setting by setting: (first pKa value listed) 0.9; (fourth pKa value listed) 9.32; (second pKa value listed) 2.1; (third pKa value listed) 6.7.
